Where “and” joins values, the source holds several entries; their conditions need not be identical. Equal values may be shown once.
Assays:
[1] = tested on: tumor endothelial cells in GBM explants; test: Active caspase-3 in CD105+ve cells of explants; conditions: 1 µM, explants #30; listed as PU-HZ151
[2] = [131I]-labeled agents, radioactivity in plasma and brain; type: in vivo, mouse; set-up: unit not given beside the values; conditions: radioactivity %ID g-1

In the case of `CC(C)(C)CNCCn1c(Sc2cc3c(cc2I)OCO3)nc2c(N)ncnc21` [Compound 85], the “%Increase Active Caspase-3 (CD105+ve cells)” value [1] is reported as 428% and 256% and 246% and the “AUCbrain PU-HZ151 : PU-H71” value [2] is reported as 12.9.

From paper PMC8333062, “Chemical tools for epichaperome-mediated interactome dysfunctions of the central nervous system” (Nature Communications, 2021)
